ChEMBL document CHEMBL1156757, “Dihydroxyphenylisoindoline amides as orally bioavailable inhibitors of the heat shock protein 90 (hsp90) molecular chaperone” (J Med Chem, 2010)

The chains behind the UniProt entries cited, without tags or fusion partners. Where a name states a change or a piece, a line headed by the entry shows the natural chain unless it says otherwise.
UniProt P08238: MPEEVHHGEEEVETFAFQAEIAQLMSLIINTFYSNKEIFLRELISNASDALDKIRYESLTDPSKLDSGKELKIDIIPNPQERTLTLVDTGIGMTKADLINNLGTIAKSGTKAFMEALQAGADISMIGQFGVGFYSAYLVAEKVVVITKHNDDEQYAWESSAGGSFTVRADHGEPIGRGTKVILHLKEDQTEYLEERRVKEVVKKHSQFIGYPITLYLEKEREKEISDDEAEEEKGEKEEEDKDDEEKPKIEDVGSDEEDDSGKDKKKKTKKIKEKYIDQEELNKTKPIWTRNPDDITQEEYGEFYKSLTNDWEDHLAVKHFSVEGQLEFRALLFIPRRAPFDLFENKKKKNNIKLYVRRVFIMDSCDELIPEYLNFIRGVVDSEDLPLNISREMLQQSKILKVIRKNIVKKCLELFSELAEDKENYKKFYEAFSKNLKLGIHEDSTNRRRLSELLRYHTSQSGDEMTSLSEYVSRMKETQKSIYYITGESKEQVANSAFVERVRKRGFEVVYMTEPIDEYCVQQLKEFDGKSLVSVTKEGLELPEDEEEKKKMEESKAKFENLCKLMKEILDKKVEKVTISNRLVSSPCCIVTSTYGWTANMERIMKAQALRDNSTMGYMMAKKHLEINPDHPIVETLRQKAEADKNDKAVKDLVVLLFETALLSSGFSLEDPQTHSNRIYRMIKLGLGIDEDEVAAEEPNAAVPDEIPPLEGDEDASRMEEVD

Biological target: Heat shock protein HSP90 (Homo sapiens, UniProt P07900+P08238)

IC50: 1.5 µM
SMILES: CCCNC(=O)C1c2ccccc2CN1C(=O)c1cc(Cl)c(O)cc1O (stereo unspecified)
